The record followed here is patent US4742057A, “Antiallergic thiazole compounds” (Fujisawa Pharmaceutical Co., Ltd., priority 1985, dated 1988).

In this test the test system is SRS-A synthesis or release from peritoneal exudate cells. In words: Anti-SRS-A activity (inhibition of SRS-A synthesis or release from peritoneal exudate cells). To be noted: rat peritoneal exudate cells; Ca++-ionophore A23187 1 μg/ml; indomethacin 10 μg/ml; SRS-A read as contractility of isolated guinea pig ileum.
As for `CCC(=O)Nc1nc(CN2CCC(c3c[nH]c4ccccc34)CC2)cs1` [Compound D, 4-[4-(3-Indolyl)piperidinomethyl]-2-propionylaminothiazole], the “Inhibitory Concentration IC50” value came out at 0.89 µg/mL. On to `O=C(Nc1nc(CN2CCC(c3c[nH]c4ccccc34)CC2)cs1)C1CC1`, for which the “Inhibitory Concentration IC50” value is 0.077 µg/mL. For the compound `CCOC(=O)Nc1nc(CN2CCC(c3c[nH]c4ccccc34)CC2)cs1`, the “Inhibitory Concentration IC50” value is 0.36 µg/mL. `CCCC(=O)Nc1nc(CN2CCC(c3c[nH]c4ccccc34)CC2)cs1`: the “Inhibitory Concentration IC50” value worked out at 0.18 µg/mL. For `CC(C)C(=O)Nc1nc(CN2CCC(c3c[nH]c4ccccc34)CC2)cs1`, the “Inhibitory Concentration IC50” value is 0.75 µg/mL. Regarding `CCC(=O)Nc1nc(CN2CCC(c3c[nH]c4ccc([N+](=O)[O-])cc34)CC2)cs1`, the “Inhibitory Concentration IC50” value is 0.22 µg/mL.
